Results on one substance are retold here after patent US11866515B2, “Hemiasterlin derivatives for conjugation and therapy” (priority 2015, dated 2024).

This assay deals with SKBR3. Put plainly: Tumor cell line assay (cell killing, Cell Titer-Glo), SKBR3. Type of assay: cell-based. The note with it: trastuzumab conjugates, SKBR3 cells (FIG. 1). As to the method: Relative luminescence was measured on an ENVISION® plate reader (Perkin-Elmer; Waltham, Mass.). Relative luminescence readings were converted to percent viability using untreated cells as controls.

“Trastuzumab: trastuzumab, unconjugated antibody control” displayed an IC50 of 0.01 µM. In other words, the double-digit nanomolar range.
